The values that follow come from paper PMC6431625 (Frontiers in Endocrinology, 2019).

Sequences of proteins named here, by UniProt entry; tags and fusion partners are left off. A change or cut given only in a name is not applied to a line headed by its entry.
UniProt P43088: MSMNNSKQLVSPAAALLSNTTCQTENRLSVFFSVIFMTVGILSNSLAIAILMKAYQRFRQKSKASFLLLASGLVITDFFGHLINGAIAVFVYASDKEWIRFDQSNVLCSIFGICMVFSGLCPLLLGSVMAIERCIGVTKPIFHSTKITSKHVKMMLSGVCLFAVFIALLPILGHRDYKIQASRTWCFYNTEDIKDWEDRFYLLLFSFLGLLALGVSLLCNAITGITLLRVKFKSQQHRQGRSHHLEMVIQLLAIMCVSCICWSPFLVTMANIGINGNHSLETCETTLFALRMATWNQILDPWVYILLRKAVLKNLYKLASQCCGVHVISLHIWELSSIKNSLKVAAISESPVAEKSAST

In the experiment the target is AT1R-Venus/FP-WT dimer (Homo sapiens, UniProt P30556+P43088). As to the kind of experiment: BRET β-arrestin 1/2-RlucII recruitment to the AT1R-Venus/FP-WT dimer. To be noted: pretreatment 30 min, sucrose 450 mM, phenylarsine oxide 2.5 μM, concanavalin A 0.4 g/L.

On to `O=[As]c1ccccc1` (centres unmarked), for which the “Effect of endocytosis inhibitor pretreatment on Ang II-induced β-arrestin 1/2-RlucII recruitment” value (Ang II 1 μM) is “diminished”. In addition, the “Effect of endocytosis inhibitor pretreatment on PGF2α-induced β-arrestin 1/2-RlucII recruitment” value (PGF2α 1 μM) is “diminished”.
